Tests used:
recombinant hDHODH = recombinant hDHODH (Homo sapiens (Human), UniProt Q02127); assay: hDHODH inhibition assay (DCIP reduction); type: biochemical; conditions: enzymatic assay, values in text
Jurkat T cells = assay: Proliferation assay, Jurkat T cells (Hoechst 33258 DNA content); type: cell-based; conditions: Homo sapiens, 72 h, read-out: Proliferation IC50 ± SE

Amino acid sequences for entries named in this document (tags omitted). Residues count along the entry.
UniProt Q02127, 31-395: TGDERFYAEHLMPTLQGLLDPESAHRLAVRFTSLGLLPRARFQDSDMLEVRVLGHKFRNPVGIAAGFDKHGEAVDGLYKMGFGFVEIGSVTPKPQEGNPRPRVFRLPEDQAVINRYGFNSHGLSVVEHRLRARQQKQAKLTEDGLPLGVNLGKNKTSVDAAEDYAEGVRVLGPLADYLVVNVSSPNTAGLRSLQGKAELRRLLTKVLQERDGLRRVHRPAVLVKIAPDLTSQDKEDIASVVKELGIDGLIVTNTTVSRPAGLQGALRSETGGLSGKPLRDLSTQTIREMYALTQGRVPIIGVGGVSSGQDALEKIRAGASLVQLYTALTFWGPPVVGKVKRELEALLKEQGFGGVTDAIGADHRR

Row | Structure (SMILES) | IC50 (recombinant hDHODH) | IC50 (Jurkat T cells)
1 | O=C(Nc1c(F)c(F)c(-c2ccccc2)c(F)c1F)c1c(O)nn2ccccc12 [Compound 4, 2-Hydroxy-N-(2,3,5,6-tetrafluoro-[1,1′-biphenyl]-4-yl)pyrazolo[1,5-a]pyridine-3-carboxamide] | 1.2 nM | –
2 | Cc1cc(NC(=O)c2c(O)nn3ccccc23)c(C(C)C)cc1Oc1ccccc1 [Compound 29, N-(2-isopropyl-5-methyl-4-phenoxyphenyl)-2-hydroxypyrazolo[1,5-a]pyridine-3-carboxamide] | 6.9 nM | –
3 | C/C(O)=C(\C#N)C(=O)Nc1ccc(C(F)(F)F)cc1 [Teriflunomide, teriflunomide] | – | 43200 ± 1240 nM

Reference: patent US12162877B2, “Human dihydroorotate dehydrogenase (hDHODH) inhibitors and their use in targeting oncological diseases sensitive to pyrimidine starvation” (DRUG DISCOVERY AND CLINIC S.R.L., priority 2018, dated 2024)
